The series is described as follows: Ionisation constant (pKa). Type of series: physicochemical.

The pKa is the pH at which an ionisable group is half protonated. Low readings indicate a stronger acid or weaker base, high ones a weaker acid or stronger base. Consider `CN(C)CCC(c1ccc(Cl)cc1)c1ccccn1` (configuration not stated) [CHLORPHENIRAMINE], for which the pKa was 9.26.
As to `COc1cc(Cc2cnc(N)nc2N)cc(OC)c1OC` [TRIMETHOPRIM], the pKa is 7.07.

The values above are taken from ChEMBL document CHEMBL1135488, “Prediction of volume of distribution values in humans for neutral and basic drugs using physicochemical measurements and plasma protein binding data” (J Med Chem, 2002).
